Test results taken from paper PMC9974843 (2023).
Where two headings read alike, the source gives them in different places.

Tested on: C57BL/6J mice
Settings: 10 mg/kg, i.p., 1 h before the 4 h session, vs saline

With `CO[C@H](C)[C@H](N)CN(C(=O)[C@@H]1C[C@H]1c1ccc(F)cn1)c1ccc(-c2ccc(OC(C)C)cc2)cc1.Cl` [Compound 30a, (1R,2R)-N-[(2R,3R)-2-Amino-3-methoxybutyl]-2-(5-fluoropyridin-2-yl)-N-[4′-(propan-2-yloxy)-[1,1′-biphenyl]-4-yl]cyclopropane-1-carboxamide Dihydrochloride] as the molecule, how does the “alcohol intake in the DID procedure” value read?
The value was “attenuated alcohol drinking”.

What about the “alcohol intake in the DID procedure” value (listed as RTI-122) of the same molecule?
The value was “significantly attenuates”.
